# Test results as given in publication PMC6737539 (Journal of medicinal chemistry, 2019).
# How the values were obtained:
# [1] = Liver microsomal metabolic stability, human; format: in vitro ADME; conditions: 10 μM, 30 min
# [2] = HFD-fed adi-hRBP4 mice, 20 mg/kg per day
Structure (SMILES),Microsomal Stability (% remaining) HLM [1],food intake (consumption of the HFD chow) [2]
"O=C(O)c1ccccc1NC(=O)N1CCC(c2ccccc2C(F)(F)F)CC1 [Compound 3, reference compound]",3.0 % remaining,
"N#Cc1ccc2nnc(C(=O)N3CCC(c4cccc(F)c4C(F)(F)F)CC3)n2c1 [Compound 59, 3-(4-(3-Fluoro-2-(trifluoromethyl)phenyl)piperidine-1-carbonyl)-[1,2,4]triazolo[4,3-a]pyridine-6-carbonitrile]",,did not alter consumption of the HFD chow
